Here are results for one compound from ChEMBL document CHEMBL1144698, “New approach to measure protein binding based on a parallel artificial membrane assay and human serum albumin” (J Med Chem, 2008).

Amino acid sequences for entries named in this document (tags omitted).
UniProt P02768, whole entry: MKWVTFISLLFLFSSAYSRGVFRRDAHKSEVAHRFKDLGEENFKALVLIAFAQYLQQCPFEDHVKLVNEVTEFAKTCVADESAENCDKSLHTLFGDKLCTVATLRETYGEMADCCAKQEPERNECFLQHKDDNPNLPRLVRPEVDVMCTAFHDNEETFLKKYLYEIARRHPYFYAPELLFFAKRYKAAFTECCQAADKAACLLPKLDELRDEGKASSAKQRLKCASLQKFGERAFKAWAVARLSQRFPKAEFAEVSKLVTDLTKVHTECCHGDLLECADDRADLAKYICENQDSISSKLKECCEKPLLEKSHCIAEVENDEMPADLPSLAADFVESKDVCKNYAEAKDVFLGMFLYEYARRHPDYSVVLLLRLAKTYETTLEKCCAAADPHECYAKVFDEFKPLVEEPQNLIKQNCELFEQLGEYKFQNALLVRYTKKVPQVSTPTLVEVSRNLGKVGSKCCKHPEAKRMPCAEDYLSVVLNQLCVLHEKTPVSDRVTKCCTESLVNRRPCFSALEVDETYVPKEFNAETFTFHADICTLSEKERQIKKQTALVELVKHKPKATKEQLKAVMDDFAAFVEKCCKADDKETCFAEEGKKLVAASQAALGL

This test has as its target Albumin (Homo sapiens, UniProt P02768). Briefly: Binding affinity to human serum albumin by PAMPA method. It is filed as ADME.

`CN(C)CCCN1c2ccccc2Sc2ccc(Cl)cc21` [CHLORPROMAZINE] gave a Kd of 55 µM.
